According to PMC12304869 (Obesity (Silver Spring, Md.), 2025):

Legend:
[1] = assay type: in vivo, human; conditions: placebo + semaglutide 2.4 mg
[2] = Phase 2 part 2a: adverse events in 32-week semaglutide run-in, SAS; assay type: in vivo, human; conditions: semaglutide 2.4 mg run-in

participants who discontinued the study product ([1]; part 2, n = 28): 5 participants
severe events ([1]; part 2b): 4%
Substance: semaglutide
AEs leading to premature treatment discontinuation ([1]; part 2b): 10.7%
gastrointestinal AEs ([1]; part 2b): 29%
AEs leading to treatment discontinuation [2]: four AEs led to treatment discontinuation
